pEC50: −log10 of the molar value.
Molecular target: T1, human LHCG receptor (Homo sapiens, UniProt P22888)
T1 construct: expressed in transfected cells
Experiment: intracellular cAMP accumulation, agonism at LHCGR stably expressed in HEK EM 293 cells
Assay type: cell-based
Method: With reference to Table 1, exemplary disclosed compounds were evaluated against human TSH receptor and human LHCG receptor that were stably expressed in HEK 293 EM cells as previously described by Libert et al. (Biochem. Biophys. Res. Commun. 1989, 165, 1250-1255); and by Schulz et al. (Mol. Endocrinol. 1999, 13, 181-190). Cell surface expression of TSH receptor and LHCG receptor were determined via FACS analysis (Kleinau, G.; Jäschke, H.; Neumann, S.; Lättig, S.; Paschke, R.; Krause, G. J. Biol. Chem. 2004, 279, 51590-51600). Agonism of compounds 3-20 were determined via measurement of intracellular cyclic AMP accumulation. […]
Cells were cultured for 48 h in 24-well plates before incubation for 1 h in serum-free DMEM containing 1 mM 3-isobutyl-1-methylxanthine (IBMX) (SIGMA) and bovine TSH (1.8 μM) (SIGMA) or human LH (1000 ng/ml) (Dr. A. Parlow, NIDDK National Hormone and Pituitary Program) or compounds 3-19 (0-100 μM) in a humidified 5% CO2 incubator. […] The cAMP content of the cell lysate was determined using the manufacturer's protocol. The efficacy of receptor activation by small molecule modulators is expressed as % of maximum response of LHCG receptor or TSH receptor to LH or TSH, respectively. […]
Transiently transfected cells were cultured for 48 hours before the cAMP assay. […] Data were analyzed using GraphPad Prism 4 for Windows. […]

Chains of the proteins cited; added tags and fusions are not shown. Residues count along the entry.
UniProt P22888, 27-699: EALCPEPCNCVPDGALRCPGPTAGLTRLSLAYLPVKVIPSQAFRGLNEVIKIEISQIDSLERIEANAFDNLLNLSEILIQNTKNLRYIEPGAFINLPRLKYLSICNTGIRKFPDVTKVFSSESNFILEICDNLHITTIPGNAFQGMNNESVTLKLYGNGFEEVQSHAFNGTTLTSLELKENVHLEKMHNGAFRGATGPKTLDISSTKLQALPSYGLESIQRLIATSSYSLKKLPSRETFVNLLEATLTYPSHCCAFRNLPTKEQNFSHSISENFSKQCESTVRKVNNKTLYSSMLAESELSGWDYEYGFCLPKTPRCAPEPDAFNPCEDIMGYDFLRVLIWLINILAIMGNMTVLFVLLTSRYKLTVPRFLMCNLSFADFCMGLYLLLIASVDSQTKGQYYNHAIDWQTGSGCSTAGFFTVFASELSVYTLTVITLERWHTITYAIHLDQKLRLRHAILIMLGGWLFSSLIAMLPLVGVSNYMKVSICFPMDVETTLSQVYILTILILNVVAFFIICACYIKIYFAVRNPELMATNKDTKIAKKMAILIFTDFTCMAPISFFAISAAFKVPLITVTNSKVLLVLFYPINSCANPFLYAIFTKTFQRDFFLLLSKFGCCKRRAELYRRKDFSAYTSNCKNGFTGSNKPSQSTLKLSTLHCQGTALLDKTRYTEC

| Compound | % Max. Resp. @ LHCGR in μM (% of maximum response of LHCGR to LH (1000 ng/ml)) [%] | pEC50 (cAMP, read-out: EC50 concentration of native ligand LH) |
| --- | --- | --- |
| CSc1nc(-c2cccc(F)c2)c2c(N)c(C(=O)NC(C)(C)C)sc2n1 [Compound 18, N-tert-butyl-5-amino-4-(3-fluorophenyl)-2-(methylthio)thieno[2,3-d]pyrimidine-6-carboxamide] | 51.1 ± 5.2 |  |
| LH: luteinizing hormone, native ligand of LHCGR (human LH) |  | 9.47 |
